# Literature values as cited in patent US8846744B2, “Pharmaceutical compositions of co-crystals of tramadol and coxibs” (Laboratorios del Dr. Esteve, S.A., priority 2010, dated 2014).
# Conditions: in-vivo; compared to celecoxib alone and to physical mixture of celecoxib and tramadol
substance,measurement,value
(rac)-tramadol.HCl-celecoxib (1:1),bio-availability regarding celecoxib exposure,improved bio-availability
